Values of other authors in publication PMC7221482 (Neurochemistry international, 2019).

Details: after acute treatment with 10 mg/kg (±)-citalopram, ref Karlsson et al., 2013; cited from earlier work

R-(−)-citalopram
mouse brain concentration: 0.5 µM
